Drawing on BindingDB's records for doi:10.1016/j.bmcl.2014.09.001 (University of Pittsburgh, 2014), this text covers IC50 for four molecules.

The nature of the test: Inhibition of IL-6-induced STAT3 phosphorylation in human Cal33 cells assessed as nuclear translocation by Western blot analysis.
By IC50 is commonly meant the concentration that gives 50% inhibition. On to `CC1=CC(C)(C)N=C(Nc2nc(C)c3cc(C)ccc3n2)N1`, for which the IC50 came out at 7.9 µM.

Take `Cc1cc(=O)nc(Nc2nc(C)c3cc(C)c(C)cc3n2)[nH]1`: the IC50 worked out at 24.7 µM.

Turning to `CCOc1ccc2nc(Nc3nc(=O)cc(-c4ccccc4)[nH]3)nc(C)c2c1`, the IC50 is 3.4 µM.

`CCOc1ccc2c(C)nc(NC3=NC(C)=CC(C)(C)N3)nc2c1` [DNDI1417388]: the IC50 came to 20.7 µM.
